What was measured:
[1] = biological target: T1, Sodium channel protein type 9 subunit alpha (Homo sapiens, UniProt Q15858); test: Inhibition of human Nav1.7 stably expressed in cells with train pulses to -20 mV at 0.1 Hz and holding potential of -95 mV by whole-cell QPatch HT assay; type: cell-based
[2] = biological target: T1, Sodium channel protein type 9 subunit alpha; test: Inhibition of human Nav1.7 stably expressed in cells with train pulses to -20 mV at 0.1 Hz and holding potential of -95 mV by Qube-automated patch clamp assay; type: cell-based

The chains behind the UniProt entries cited, without tags or fusion partners.
UniProt Q15858, whole entry: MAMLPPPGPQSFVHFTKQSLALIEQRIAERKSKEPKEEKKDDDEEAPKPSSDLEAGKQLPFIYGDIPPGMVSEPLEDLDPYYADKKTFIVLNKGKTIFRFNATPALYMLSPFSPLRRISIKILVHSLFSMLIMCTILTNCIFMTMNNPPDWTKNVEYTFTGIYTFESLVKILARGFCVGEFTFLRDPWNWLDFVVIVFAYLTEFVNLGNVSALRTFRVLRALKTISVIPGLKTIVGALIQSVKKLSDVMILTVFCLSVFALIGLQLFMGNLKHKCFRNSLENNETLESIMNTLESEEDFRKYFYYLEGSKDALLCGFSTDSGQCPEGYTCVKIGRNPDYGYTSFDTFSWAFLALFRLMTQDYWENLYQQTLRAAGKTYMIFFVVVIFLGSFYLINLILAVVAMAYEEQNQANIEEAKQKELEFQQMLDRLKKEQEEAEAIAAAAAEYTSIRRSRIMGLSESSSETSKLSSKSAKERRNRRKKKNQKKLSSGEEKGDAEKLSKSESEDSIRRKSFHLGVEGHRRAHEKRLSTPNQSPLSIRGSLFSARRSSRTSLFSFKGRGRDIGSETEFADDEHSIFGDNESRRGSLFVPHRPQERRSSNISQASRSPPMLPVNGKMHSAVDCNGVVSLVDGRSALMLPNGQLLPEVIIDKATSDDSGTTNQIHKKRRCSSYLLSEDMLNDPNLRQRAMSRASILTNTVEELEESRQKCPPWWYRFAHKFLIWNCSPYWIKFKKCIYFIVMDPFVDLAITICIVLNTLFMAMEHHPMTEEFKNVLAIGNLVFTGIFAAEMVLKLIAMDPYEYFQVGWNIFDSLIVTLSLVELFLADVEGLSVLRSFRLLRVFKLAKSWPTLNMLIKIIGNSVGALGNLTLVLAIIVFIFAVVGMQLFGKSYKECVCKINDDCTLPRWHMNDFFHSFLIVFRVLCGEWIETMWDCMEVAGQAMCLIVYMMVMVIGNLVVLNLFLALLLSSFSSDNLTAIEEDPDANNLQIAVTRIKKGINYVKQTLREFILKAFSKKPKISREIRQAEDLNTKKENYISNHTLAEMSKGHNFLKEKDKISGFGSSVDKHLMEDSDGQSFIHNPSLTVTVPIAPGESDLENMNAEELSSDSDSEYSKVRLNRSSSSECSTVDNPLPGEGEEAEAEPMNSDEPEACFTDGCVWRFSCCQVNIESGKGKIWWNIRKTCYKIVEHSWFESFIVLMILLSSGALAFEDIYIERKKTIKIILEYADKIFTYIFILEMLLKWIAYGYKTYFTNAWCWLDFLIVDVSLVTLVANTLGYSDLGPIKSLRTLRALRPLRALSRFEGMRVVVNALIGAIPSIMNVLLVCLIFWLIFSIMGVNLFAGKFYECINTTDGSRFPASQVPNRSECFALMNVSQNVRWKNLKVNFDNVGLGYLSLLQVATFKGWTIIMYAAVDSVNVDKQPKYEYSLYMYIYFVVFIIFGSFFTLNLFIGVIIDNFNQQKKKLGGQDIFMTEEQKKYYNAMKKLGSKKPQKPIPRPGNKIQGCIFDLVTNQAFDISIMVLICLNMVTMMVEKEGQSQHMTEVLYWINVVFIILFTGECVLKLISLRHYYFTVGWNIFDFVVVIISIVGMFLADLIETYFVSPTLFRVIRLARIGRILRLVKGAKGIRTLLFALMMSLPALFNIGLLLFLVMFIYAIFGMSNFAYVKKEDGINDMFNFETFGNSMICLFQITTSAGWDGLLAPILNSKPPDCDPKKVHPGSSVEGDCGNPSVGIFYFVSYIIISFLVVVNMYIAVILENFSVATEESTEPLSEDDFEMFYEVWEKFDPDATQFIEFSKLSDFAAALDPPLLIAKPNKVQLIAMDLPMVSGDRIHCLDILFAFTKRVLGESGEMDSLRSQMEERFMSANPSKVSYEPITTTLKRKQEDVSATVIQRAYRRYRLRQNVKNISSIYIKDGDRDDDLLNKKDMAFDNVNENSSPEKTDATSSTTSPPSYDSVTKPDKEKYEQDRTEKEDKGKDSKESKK

**Q.** For `CSCC[C@@H]1NC(=O)CNC(=O)[C@H](CCC(=O)O)NC(=O)[C@@H]2CSSC[C@H](NC(=O)[C@@H](N)Cc3ccc(O)cc3)C(=O)N[C@@H](CCC(N)=O)C(=O)N[C@@H](CCCCN)C(=O)N[C@@H](Cc3c[nH]c4ccccc34)C(=O)N[C@@H](CCSC)C(=O)N[C@@H](Cc3c[nH]c4ccccc34)C(=O)N[C@@H]([C@@H](C)O)C(=O)N[C@H]3CSSC[C@H](NC(=O)[C@H](C(C)C)NC1=O)C(=O)N[C@@H](CCCNC(=N)N)C(=O)N[C@@H](CC(C)C)C(=O)N[C@@H](Cc1c[nH]c4ccccc14)C(=O)N[C@H](C(=O)N[C@@H](CCCCN)C(=O)N[C@@H](CCCCN)C(=O)N[C@@H](CCCCN)C(=O)N[C@@H](CC(C)C)C(=O)N[C@@H](Cc1c[nH]c4ccccc14)C(N)=O)CSSC[C@H](NC(=O)[C@H](CCCCN)NC(=O)[C@H](CCCNC(=N)N)NC(=O)[C@H](CCC(=O)O)NC(=O)[C@H](CO)NC(=O)[C@H](CC(=O)O)NC3=O)C(=O)N2`, which IC50 [1] is on record?
**A.** 2.7 nM

**Q.** And the IC50 [2]?
**A.** 44 nM

Source: ChEMBL document CHEMBL5038633, “Development of ProTx-II Analogues as Highly Selective Peptide Blockers of Nav1.7 for the Treatment of Pain” (J Med Chem, 2022)
